This assay concerns the target T1, JAK3(JH1domain-catalytic) (Homo sapiens, UniProt P52333).
T1 construct: JH1domain-catalytic
T1 sequence (P52333 1-1124): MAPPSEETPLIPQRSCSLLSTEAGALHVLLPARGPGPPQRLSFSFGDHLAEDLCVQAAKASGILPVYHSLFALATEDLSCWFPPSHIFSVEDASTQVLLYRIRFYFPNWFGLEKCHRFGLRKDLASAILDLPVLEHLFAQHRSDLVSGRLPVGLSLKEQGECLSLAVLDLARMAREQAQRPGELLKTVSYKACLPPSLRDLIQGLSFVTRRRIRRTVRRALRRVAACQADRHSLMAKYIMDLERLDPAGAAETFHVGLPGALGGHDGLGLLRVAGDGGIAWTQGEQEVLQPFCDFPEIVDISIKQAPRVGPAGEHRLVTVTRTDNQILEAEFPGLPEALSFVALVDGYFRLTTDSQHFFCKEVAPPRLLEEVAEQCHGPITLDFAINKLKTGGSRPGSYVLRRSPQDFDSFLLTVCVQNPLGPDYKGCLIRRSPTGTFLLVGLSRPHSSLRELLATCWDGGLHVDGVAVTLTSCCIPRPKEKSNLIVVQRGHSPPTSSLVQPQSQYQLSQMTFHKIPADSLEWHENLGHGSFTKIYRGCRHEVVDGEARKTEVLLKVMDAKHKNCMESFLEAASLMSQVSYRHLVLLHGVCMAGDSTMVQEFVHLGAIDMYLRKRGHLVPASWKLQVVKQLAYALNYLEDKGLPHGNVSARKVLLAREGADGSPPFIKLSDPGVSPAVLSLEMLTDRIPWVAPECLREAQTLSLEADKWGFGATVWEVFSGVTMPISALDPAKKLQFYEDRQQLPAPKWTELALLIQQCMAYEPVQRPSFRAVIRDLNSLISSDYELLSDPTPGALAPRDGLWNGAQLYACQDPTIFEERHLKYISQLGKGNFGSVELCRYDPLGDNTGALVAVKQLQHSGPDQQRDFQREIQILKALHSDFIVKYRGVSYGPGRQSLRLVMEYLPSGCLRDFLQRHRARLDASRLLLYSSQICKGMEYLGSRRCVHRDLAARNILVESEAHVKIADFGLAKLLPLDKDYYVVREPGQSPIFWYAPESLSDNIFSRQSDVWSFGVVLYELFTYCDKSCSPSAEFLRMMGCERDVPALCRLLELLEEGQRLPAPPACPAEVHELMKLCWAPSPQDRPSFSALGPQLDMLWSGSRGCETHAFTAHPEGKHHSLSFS
The experiment in a line: biochemical. The arrangement: KINOMEscan scanMAX competition binding, DNA-tagged kinases, qPCR read-out, percent control at 300 nM.

`C=CC(=O)N1CCC([C@@H]2CCNc3c(C(N)=O)c(-c4ccc(Oc5ccccc5)cc4)nn32)CC1` [Zanubrutinib]: the remaining binding at 0.3 µM (read-out: Percent control / Zanubrutinib) is 86%.
As for `C=CC(=O)N1CCC[C@@H](n2nc(-c3ccc(Oc4ccccc4)cc3)c3c(N)ncnc32)C1` [Ibrutinib], the “Percent control / Ibrutinib” value (percent of kinase still bound to immobilized ligand, 0.3 µM, binder) was 3.7%.
